Literature values, collected in publication PMC3825844 (Analytical biochemistry, 2013).

Test system: PXR-SRC (steroid receptor coactivator) tethered protein
Details: read-out: hypothetical Kd, circular dichroism; cited from earlier work

For Hyperforin, the Kd is given as 50 nM.
